Measurements as given in article PMC5329011 (Frontiers in Neuroscience, 2017).

Columns and labels:
apelin receptor [1] = molecular target: T1, apelin receptor (Homo sapiens, UniProt P35414); test: Competition binding with [Glp65,Nle75,Tyr77][125I]apelin-13 in human left ventricle homogenate; set-up: from tissue; host or cells: human left ventricle homogenate; details: single concentration 1 μM peptide
T1 sequence (P35414 1-380): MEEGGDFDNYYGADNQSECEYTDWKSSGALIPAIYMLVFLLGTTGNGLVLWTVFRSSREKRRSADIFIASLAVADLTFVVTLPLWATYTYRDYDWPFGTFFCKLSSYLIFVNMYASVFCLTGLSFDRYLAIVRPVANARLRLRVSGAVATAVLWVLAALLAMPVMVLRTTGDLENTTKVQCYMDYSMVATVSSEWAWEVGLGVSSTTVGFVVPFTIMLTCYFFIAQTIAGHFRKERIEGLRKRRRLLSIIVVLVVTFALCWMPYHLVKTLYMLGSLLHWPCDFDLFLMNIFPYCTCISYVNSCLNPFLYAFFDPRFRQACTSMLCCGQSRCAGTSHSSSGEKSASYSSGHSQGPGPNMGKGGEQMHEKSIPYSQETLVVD
Method: Assays were performed in human heart as previously described (Brame et al., [2015]). […] Equilibrium was broken by centrifugation (20,000 g for 10 min, 4°C) and pellets washed with Tris-HCl buffer (50 mmol/L, pH 7.4, 4°C), re-centrifuged and pellets counted for detection of bound radioactivity. Competition binding data were analyzed using GraphPad Prism 6 (GraphPad Software, Inc. La Jolla, CA, USA) to obtain values of pKi (the negative log10 of the dissociation constant derived from the IC50 for the competing ligands, the radioligand concentration and radioligand affinity by the Cheng and Prusoff equation). Experiments were performed in triplicate.
Measurements are mean ± standard error of the mean (SEM). […] Cell assay pD2 values were compared by one-way ANOVA followed by Tukey's multiple comparison test.

apelin receptor [2] = molecular target: T1, apelin receptor; test: β-arrestin recruitment assay (DiscoverX); assay type: cell-based; details: at 300 μM
Method: (§1) Inhibition of cAMP accumulation, β-arrestin recruitment and receptor internalization by apelin isoforms, modified and truncated apelin peptides were studied using cells expressing the human apelin receptor (DiscoverX, CA, USA) as per the manufacturer's instructions. In all assays the resulting chemiluminescent signal was measured as relative light units (RLU) using a LumiLITE™ Microplate Reader (DiscoveRx, Fremont, CA). […] Agonist responses were expressed as a % of the forskolin response. […] Data were analyzed using a 4-parameter logistic equation using GraphPad Prism 6 to determine values of potency, pD2 (−log10 EC50, where EC50 is the concentration producing half maximal response) and maximum response (EMAX). n-Values are given as number of replicates/number of experiments.

apelin receptor [3] = molecular target: T1, apelin receptor; test: Inhibition of forskolin-stimulated cAMP accumulation (DiscoverX); assay type: cell-based; details: R9P and P9M up to 10 μM
Method: as §1

Substance | % of specific binding competed for (apelin receptor [1]) [%] | completeness of β-arrestin concentration-response curve (apelin receptor [2]) | extent of inhibition of cAMP production (apelin receptor [3])
apelin-13(P9M) | 62 | incomplete | incomplete
apelin-13(R9P) | 38 | incomplete | incomplete
